Laboratory results from ChEMBL document CHEMBL2086322, “"True" antiandrogens-selective non-ligand-binding pocket disruptors of androgen receptor-coactivator interactions: novel tools for prostate cancer” (J Med Chem, 2012).

Protein sequences, listed by entry. Tags and fused reporters are not part of them. Lines headed by an entry give the natural chain unless they say otherwise; changes in a name come on top.
UniProt P10275: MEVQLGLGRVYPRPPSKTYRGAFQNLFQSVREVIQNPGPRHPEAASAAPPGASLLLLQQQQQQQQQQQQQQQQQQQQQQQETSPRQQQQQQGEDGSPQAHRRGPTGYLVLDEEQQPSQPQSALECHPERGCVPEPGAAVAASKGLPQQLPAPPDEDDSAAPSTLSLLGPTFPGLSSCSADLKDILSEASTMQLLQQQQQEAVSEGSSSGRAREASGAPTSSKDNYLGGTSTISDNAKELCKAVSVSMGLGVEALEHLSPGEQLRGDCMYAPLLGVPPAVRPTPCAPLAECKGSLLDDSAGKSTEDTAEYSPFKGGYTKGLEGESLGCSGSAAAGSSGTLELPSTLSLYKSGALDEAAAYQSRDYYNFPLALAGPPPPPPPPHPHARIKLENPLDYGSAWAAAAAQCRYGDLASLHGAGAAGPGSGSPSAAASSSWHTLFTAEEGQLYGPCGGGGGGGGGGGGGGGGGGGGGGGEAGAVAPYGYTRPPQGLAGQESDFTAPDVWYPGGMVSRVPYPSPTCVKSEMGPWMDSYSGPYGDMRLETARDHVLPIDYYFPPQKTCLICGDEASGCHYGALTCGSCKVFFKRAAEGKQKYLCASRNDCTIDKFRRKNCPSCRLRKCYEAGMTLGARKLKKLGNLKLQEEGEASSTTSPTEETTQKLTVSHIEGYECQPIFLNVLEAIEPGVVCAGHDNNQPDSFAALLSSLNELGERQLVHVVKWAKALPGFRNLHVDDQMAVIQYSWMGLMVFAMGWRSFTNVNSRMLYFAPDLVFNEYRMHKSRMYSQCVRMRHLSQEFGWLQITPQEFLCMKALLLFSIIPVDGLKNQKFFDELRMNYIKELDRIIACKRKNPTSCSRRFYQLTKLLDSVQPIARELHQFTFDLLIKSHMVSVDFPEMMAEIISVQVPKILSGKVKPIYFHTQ

Target: Androgen receptor (Homo sapiens) (UniProt P10275)
Experiment: Displacement of fluormone from AR LBD after 4 hrs by fluorescence polarization assay
Conditions: concentration not given here

**Q.** Which inhibition does the source give for CCCOc1ccc(/C=N/NC(=O)c2cc3c(ccc4ccccc43)o2)cc1 here?
**A.** 0%
